# Values of other authors as cited in US20160038454A1, “INTRAVENOUS FORMULATIONS OF TRIPTOLIDE COMPOUNDS AS IMMUNOMODULATORS AND ANTICANCER AGENTS” (priority 2013, published 2016).
# System: patients with AML
# Conditions: given intravenously, cited from earlier work
substance,measurement,setting,value
triptolide 14-succinate [PG490-88],conversion of prodrug to triptolide,clinical,incompletely and erratically converted
same,AUC / Cmax profile,,relatively flat over time with no intense Cmax
